In ChEMBL document CHEMBL1151472, “In vitro interactions between tacrolimus and azoles against Candida albicans determined by different methods” (2008):

What was measured:
Candida albicans [1] = assay: Antimicrobial activity against azole-susceptible Candida albicans isolate CA14 assessed as log reduction in colony count at 10 ug/ml co-treated with calcineurin signaling inhibitor tacrolimus after 48 hrs by time killing test; format: functional
Candida albicans [2] = assay: Antimicrobial activity against azole-resistant Candida albicans isolate CA10 assessed as log reduction in colony count at 10 ug/ml co-treated with calcineurin signaling inhibitor tacrolimus after 48 hrs by time killing test; format: functional

OC(Cn1cncn1)(Cn1cncn1)c1ccc(F)cc1F [FLUCONAZOLE]
Activity (Candida albicans [1]): 1.98 | Activity (Candida albicans [2]): 2.03
